Experimental data from patent publication US20210395313A1, “PEPTIDE PAC1 ANTAGONISTS” (AMGEN INC., priority 2017, published 2021).

Tests used:
human PAC1 receptor = biological target: T1, human PAC1 receptor (Homo sapiens, UniProt P41586); assay: LANCE Ultra cAMP accumulation antagonist assay in SHSY-5Y cells; format: cell-based;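 further: inhibition of cAMP accumulation evoked by PAC1 agonist at its EC80 in SHSY-5Y cells endogenously expressing receptor, 30 min preincubation then 15 min agonist, TR-FRET readout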
T1 construct: SHSY-5Y (human neuroblastoma cell line) and RG-2 (rat glioma cell line) cells endogenously express human and rat PAC1 receptors, respectively; endogenous in cells; host or cells: SHSY-5Y human neuroblastoma cells
T1 sequence (P41586 21-468): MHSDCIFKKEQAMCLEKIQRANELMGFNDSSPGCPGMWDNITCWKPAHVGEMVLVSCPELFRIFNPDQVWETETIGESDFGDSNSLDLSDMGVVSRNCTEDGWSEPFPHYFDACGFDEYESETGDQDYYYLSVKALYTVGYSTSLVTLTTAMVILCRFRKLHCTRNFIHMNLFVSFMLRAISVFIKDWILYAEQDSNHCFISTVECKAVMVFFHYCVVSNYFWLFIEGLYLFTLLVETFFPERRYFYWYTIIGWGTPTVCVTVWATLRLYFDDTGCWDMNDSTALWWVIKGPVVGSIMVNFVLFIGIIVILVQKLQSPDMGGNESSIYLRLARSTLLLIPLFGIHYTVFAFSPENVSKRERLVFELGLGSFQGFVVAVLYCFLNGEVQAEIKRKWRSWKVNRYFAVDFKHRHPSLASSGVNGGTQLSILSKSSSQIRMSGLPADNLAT

rat PAC1 receptor = biological target: T2, rat PAC1 receptor (Rattus norvegicus, UniProt P32215); assay: LANCE Ultra cAMP accumulation antagonist assay in RG-2 cells; format: cell-based;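 further: RG-2 rat glioma cells endogenously expressing PAC1, test peptide preincubated 30 min, then PAC1 agonist added at its EC80 for 15 min, cAMP accumulation read by LANCE Ultra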
T2 construct: SHSY-5Y (human neuroblastoma cell line) and RG-2 (rat glioma cell line) cells endogenously express human and rat PAC1 receptors, respectively; endogenous in cells; host or cells: RG-2 rat glioma cells
T2 sequence (P32215 20-523): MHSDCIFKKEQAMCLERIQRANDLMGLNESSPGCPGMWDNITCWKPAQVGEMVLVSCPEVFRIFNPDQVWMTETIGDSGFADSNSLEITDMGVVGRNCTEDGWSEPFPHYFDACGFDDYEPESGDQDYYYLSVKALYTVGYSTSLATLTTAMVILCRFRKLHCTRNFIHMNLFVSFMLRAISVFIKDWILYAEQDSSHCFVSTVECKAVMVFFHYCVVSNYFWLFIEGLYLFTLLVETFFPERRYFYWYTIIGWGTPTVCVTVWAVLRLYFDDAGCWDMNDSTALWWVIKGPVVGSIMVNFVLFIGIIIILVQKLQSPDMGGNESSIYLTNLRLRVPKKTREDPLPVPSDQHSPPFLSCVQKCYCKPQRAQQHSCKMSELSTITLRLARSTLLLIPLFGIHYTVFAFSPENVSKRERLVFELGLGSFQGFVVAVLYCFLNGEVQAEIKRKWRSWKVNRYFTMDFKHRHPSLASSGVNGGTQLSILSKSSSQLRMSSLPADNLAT

Q: For `CC[C@H](C)[C@H](NC(=O)[C@H](C)NC(=O)[C@H](CCCCN)NC(=O)[C@H](CCCNC(=N)N)NC(=O)[C@H](Cc1ccccc1)NC(=O)[C@H](CCC(N)=O)NC(=O)[C@@H]1CSSC[C@H](N)C(=O)N[C@@H](CC(=O)O)C(=O)N[C@@H](C)C(=O)N[C@@H]([C@@H](C)O)C(=O)N1)C(=O)N[C@@H](CC(=O)O)C(=O)N[C@@H](CC(=O)O)C(=O)N[C@H]1CSSC[C@@H](C(=O)N[C@@H](CCSC)C(=O)N[C@@H](CCCCN)C(=O)N[C@@H](CCC(N)=O)C(=O)N[C@@H](CCCCN)C(=O)N[C@@H](CCCCN)C(=O)N[C@@H](CCCCN)C(=O)N[C@@H](CCC(=O)O)C(=O)N[C@@H](Cc2ccccc2)C(=O)N[C@@H](CCCCN)C(N)=O)NC(=O)C(C)(C)NC(=O)[C@H](CCCCN)NC(=O)[C@H](Cc2ccccc2)NC(=O)[C@H](CO)NC(=O)[C@H](CC(N)=O)NC(=O)[C@H](CO)NC(=O)[C@H](Cc2c[nH]cn2)NC(=O)[C@H](Cc2c[nH]cn2)NC(=O)[C@H](C)NC(=O)[C@H](CCC(N)=O)NC(=O)[C@H](CCCCN)NC(=O)[C@H](CCC(N)=O)NC1=O` [compound 247], which IC50 (human PAC1 receptor) is on record?
A: 1 to 100 nM

Q: What about the IC50 (rat PAC1 receptor) of the same molecule?
A: 1 to 100 nM

Q: What does the source list for `CCCC[C@H](NC(=O)[C@@H]1CSSC[C@H](NC(=O)[C@H](CC(=O)O)NC(=O)[C@H](CC(=O)O)NC(=O)[C@@H](NC(=O)[C@H](C)NC(=O)[C@H](CCCCN)NC(=O)[C@H](CCCNC(=N)N)NC(=O)[C@H](Cc2ccccc2)NC(=O)[C@H](CCC(N)=O)NC(=O)[C@@H]2CSSC[C@H](N)C(=O)N[C@@H](CC(=O)O)C(=O)N[C@@H](C)C(=O)N[C@@H]([C@@H](C)O)C(=O)N2)[C@@H](C)CC)C(=O)N[C@@H](CC(=O)O)C(=O)N[C@@H](CCCCN)C(=O)N[C@@H](CCC(N)=O)C(=O)N[C@@H](C)C(=O)N[C@@H](Cc2c[nH]cn2)C(=O)N[C@@H](Cc2c[nH]cn2)C(=O)N[C@@H](CO)C(=O)N[C@@H](CC(N)=O)C(=O)N[C@@H](C(C)C)C(=O)N2CCC[C@H]2C(=O)N[C@@H](CO)C(=O)N[C@@H](C(C)C)C(=O)N[C@@H](Cc2ccccc2)C(=O)N[C@@H](CCCCN)C(=O)NC(C)(C)C(=O)N1)C(=O)N[C@@H](CCCCN)C(=O)N[C@@H](CCC(N)=O)C(=O)N[C@@H](CCCCN)C(=O)N[C@@H](CCCCN)C(=O)N[C@@H](CCCCN)C(=O)N[C@@H](CCC(=O)O)C(=O)N[C@@H](Cc1ccccc1)C(=O)N[C@@H](CCCCN)C(=O)N[C@@H](C)C(=O)NCC(N)=O` [compound 248]?
A: IC50 (human PAC1 receptor): 1 to 100 nM; IC50 (rat PAC1 receptor): 0.01 to 1 nM

Q: What does the source list for `CCCC[C@H](NC(=O)[C@@H]1CSSC[C@H](NC(=O)[C@H](CC(=O)O)NC(=O)[C@H](CC(=O)O)NC(=O)[C@@H](NC(=O)[C@H](C)NC(=O)[C@H](CCCCN)NC(=O)[C@H](CCCNC(=N)N)NC(=O)[C@H](Cc2ccccc2)NC(=O)[C@H](CCC(N)=O)NC(=O)[C@@H]2CSSC[C@H](N)C(=O)N[C@@H](CC(=O)O)C(=O)N[C@@H](C)C(=O)N[C@@H]([C@@H](C)O)C(=O)N2)[C@@H](C)CC)C(=O)N[C@@H](CC(=O)O)C(=O)N[C@@H](CCCCN)C(=O)N[C@@H](CCC(N)=O)C(=O)N[C@@H](C)C(=O)N[C@@H](Cc2ccc(O)cc2)C(=O)N[C@@H](Cc2c[nH]cn2)C(=O)N[C@@H](CO)C(=O)N[C@@H](CC(N)=O)C(=O)N[C@@H](C(C)C)C(=O)N2CCC[C@H]2C(=O)N[C@@H](CO)C(=O)N[C@@H](C(C)C)C(=O)N[C@@H](Cc2ccccc2)C(=O)N[C@@H](CCCCN)C(=O)NC(C)(C)C(=O)N1)C(=O)N[C@@H](CCCCN)C(=O)N[C@@H](CCC(N)=O)C(=O)N[C@@H](CCCCN)C(=O)N[C@@H](CCCCN)C(=O)N[C@@H](CCCCN)C(=O)N[C@@H](CCC(=O)O)C(=O)N[C@@H](Cc1ccccc1)C(=O)N[C@@H](CCCCN)C(=O)N[C@@H](C)C(=O)NCC(N)=O` [compound 251]?
A: IC50 (human PAC1 receptor): 1 to 100 nM; IC50 (rat PAC1 receptor): 0.01 to 1 nM

Q: `CCCC[C@H](NC(=O)[C@@H]1CSSC[C@H](NC(=O)[C@H](CC(=O)O)NC(=O)[C@H](CC(=O)O)NC(=O)[C@@H](NC(=O)[C@H](C)NC(=O)[C@H](CCCCN)NC(=O)[C@H](CCCNC(=N)N)NC(=O)[C@H](Cc2ccccc2)NC(=O)[C@H](CCC(N)=O)NC(=O)[C@@H]2CSSC[C@H](N)C(=O)N[C@@H](CC(=O)O)C(=O)N[C@@H](C)C(=O)N[C@@H]([C@@H](C)O)C(=O)N2)[C@@H](C)CC)C(=O)N[C@@H](CC(=O)O)C(=O)N[C@@H](CCCCN)C(=O)N[C@@H](CCC(N)=O)C(=O)N[C@@H](C)C(=O)N[C@@H](Cc2c[nH]cn2)C(=O)N[C@@H](Cc2c[nH]cn2)C(=O)N[C@@H](CO)C(=O)N[C@@H](CC(N)=O)C(=O)N[C@@H](C(C)C)C(=O)N2CCC[C@H]2C(=O)NCC(=O)N[C@@H](CO)C(=O)N[C@@H](Cc2ccccc2)C(=O)N[C@@H](CCCCN)C(=O)NC(C)(C)C(=O)N1)C(=O)N[C@@H](CCCCN)C(=O)N[C@@H](CCC(N)=O)C(=O)N[C@@H](CCCCN)C(=O)N[C@@H](CCCCN)C(=O)N[C@@H](CCCCN)C(=O)N[C@@H](CCC(=O)O)C(=O)N[C@@H](Cc1ccccc1)C(=O)N[C@@H](CCCCN)C(=O)N[C@@H](C)C(=O)NCC(N)=O` [compound 252] was tested. Which IC50 (human PAC1 receptor) did it give?
A: 1 to 100 nM

Q: What about the IC50 (rat PAC1 receptor) of the same molecule?
A: 0.01 to 1 nM

Q: For `CC[C@H](C)[C@H](NC(=O)[C@H](C)NC(=O)[C@H](CCCCN)NC(=O)[C@H](CCCNC(=N)N)NC(=O)[C@H](Cc1ccccc1)NC(=O)[C@H](CCC(N)=O)NC(=O)[C@@H]1CSSC[C@H](N)C(=O)N[C@@H](CC(=O)O)C(=O)N[C@@H](C)C(=O)N[C@@H]([C@@H](C)O)C(=O)N1)C(=O)N[C@@H](CC(=O)O)C(=O)N[C@@H](CC(=O)O)C(=O)N[C@H]1CSSC[C@@H](C(=O)N[C@@H](CCSC)C(=O)N[C@@H](CCCCN)C(=O)N[C@@H](CCC(N)=O)C(=O)N[C@@H](CCCCN)C(=O)N[C@@H](CCCCN)C(=O)N[C@@H](CCCCN)C(=O)N[C@@H](CCC(=O)O)C(=O)N[C@@H](Cc2ccccc2)C(=O)N[C@@H](CCCCN)C(=O)N[C@@H](C)C(=O)NCC(N)=O)NC(=O)C(C)(C)NC(=O)[C@H](CCCCN)NC(=O)[C@H](Cc2ccccc2)NC(=O)[C@H](C(C)C)NC(=O)[C@H](CO)NC(=O)CNC(=O)[C@@H]2CCCN2C(=O)[C@H](C(C)C)NC(=O)[C@H](CC(N)=O)NC(=O)[C@H](CO)NC(=O)[C@H](Cc2c[nH]cn2)NC(=O)[C@H](Cc2c[nH]cn2)NC(=O)[C@H](C)NC(=O)[C@H](CCC(N)=O)NC(=O)[C@H](CCCCN)NC(=O)[C@H](CC(=O)O)NC1=O` [compound 254], which IC50 (human PAC1 receptor) is on record?
A: 0.01 to 1 nM

Q: And the IC50 (rat PAC1 receptor)?
A: 0.01 to 1 nM

Q: `CCCC[C@H](NC(=O)[C@@H]1CSSC[C@H](NC(=O)[C@H](CC(=O)O)NC(=O)[C@H](CC(=O)O)NC(=O)[C@@H](NC(=O)[C@H](C)NC(=O)[C@H](CCCCN)NC(=O)[C@H](CCCNC(=N)N)NC(=O)[C@H](Cc2ccccc2)NC(=O)[C@H](CCC(N)=O)NC(=O)[C@@H]2CSSC[C@H](N)C(=O)N[C@@H](CC(=O)O)C(=O)N[C@@H](C)C(=O)N[C@@H]([C@@H](C)O)C(=O)N2)[C@@H](C)CC)C(=O)N[C@@H](CC(=O)O)C(=O)N[C@@H](CCCCN)C(=O)N[C@@H](CCC(N)=O)C(=O)N[C@@H](C)C(=O)N[C@@H](Cc2c[nH]cn2)C(=O)N[C@@H](Cc2c[nH]cn2)C(=O)N[C@@H](CO)C(=O)N[C@@H](CC(N)=O)C(=O)N[C@@H](C(C)C)C(=O)N2CCC[C@H]2C(=O)NCC(=O)N[C@@H](CO)C(=O)N[C@@H](C(C)C)C(=O)N[C@@H](Cc2ccccc2)C(=O)N[C@@H](CCCCN)C(=O)NC(C)(C)C(=O)N1)C(=O)N[C@@H](CCCCN)C(=O)N[C@@H](CCC(N)=O)C(=O)N[C@@H](CCCCN)C(=O)N[C@@H](CCCCN)C(=O)N[C@@H](CCCCN)C(=O)N[C@@H](CCC(=O)O)C(=O)N[C@@H](Cc1ccccc1)C(=O)N[C@@H](CCCCN)C(=O)N[C@@H](C)C(=O)NCC(N)=O` [compound 255] was tested. Which IC50 (human PAC1 receptor) did it give?
A: 1 to 100 nM

Q: What about the IC50 (rat PAC1 receptor) of the same molecule?
A: 0.01 to 1 nM

Q: What does the source list for `CC[C@H](C)[C@H](NC(=O)[C@H](C)NC(=O)[C@H](CCCCN)NC(=O)[C@H](CCCNC(=N)N)NC(=O)[C@H](Cc1ccccc1)NC(=O)[C@H](CCC(N)=O)NC(=O)[C@@H]1CSSC[C@H](N)C(=O)N[C@@H](CC(=O)O)C(=O)N[C@@H](C)C(=O)N[C@@H]([C@@H](C)O)C(=O)N1)C(=O)N[C@@H](CC(=O)O)C(=O)N[C@@H](CC(=O)O)C(=O)N[C@H]1CSSC[C@@H](C(=O)N[C@@H](CCSC)C(=O)N[C@@H](CCCCN)C(=O)N[C@@H](CCC(N)=O)C(=O)N[C@@H](CCCCN)C(=O)N[C@@H](CCCCN)C(=O)N[C@@H](CCCCN)C(=O)N[C@@H](CCC(=O)O)C(=O)N[C@@H](Cc2ccccc2)C(=O)N[C@@H](CCCCN)C(N)=O)NC(=O)C(C)(C)NC(=O)[C@H](CCCCN)NC(=O)[C@H](Cc2ccccc2)NC(=O)[C@H](C(C)C)NC(=O)[C@H](CO)NC(=O)[C@H](CC(N)=O)NC(=O)[C@H](CO)NC(=O)[C@H](Cc2c[nH]cn2)NC(=O)[C@H](Cc2c[nH]cn2)NC(=O)[C@H](C)NC(=O)[C@H](CCC(N)=O)NC(=O)[C@H](CCCCN)NC(=O)[C@H](CCC(N)=O)NC1=O` [compound 256]?
A: IC50 (human PAC1 receptor): 1 to 100 nM; IC50 (rat PAC1 receptor): 1 to 100 nM
